From patent US8003632B2, “Cholinesterase inhibitors for treating inflammation” (priority 2004, dated 2011)

Tested on: murine CLP model of sepsis
Experiment: Survival in murine CLP model of sepsis
Assay type: in vivo, mice
Conditions: Day 6; 1.25 ug/kg i.p. from 24 h after CLP for 3 days; vehicle about 50%

In the case of `C/C=C1\[C@H]2C=C(C)C[C@]1(N)c1ccc(=O)[nH]c1C2`, the mice survived is reported as “about 80%”.
